This is an account of results in PubChem BioAssay AID720646 (Broad Institute, 2013).

Protein sequences, listed by entry. Tags and fused reporters are not part of them. Lines headed by an entry give the natural chain unless they say otherwise; changes in a name come on top.
UniProt Q9HCT0: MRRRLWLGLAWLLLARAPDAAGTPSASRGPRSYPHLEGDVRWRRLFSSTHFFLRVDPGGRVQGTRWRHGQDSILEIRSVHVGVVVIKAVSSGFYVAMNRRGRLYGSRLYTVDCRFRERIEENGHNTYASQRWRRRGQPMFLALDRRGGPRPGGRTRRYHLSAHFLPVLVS

The structures appear in SMILES notation.

The target of the test is Fibroblast growth factor 22 (Homo sapiens) (UniProt Q9HCT0). Briefly: binders of human FGF22 protein, dose response, FGF22 synaptogenesis inhibitor project, biophysical, thermal shift, cherry-pick retest (AID 720646). The conditions noted are these: recombinant FGF22 thermal shift, SYPRO orange fluorescence.

As to `Cc1ccc(S(=O)(=O)N(CCCN)CCCc2c(C)nc(N)[nH]c2=O)cc1`, the AC is 35.2 µM.
